Test results published in ChEMBL document CHEMBL1144811, “Design and synthesis of morpholine derivatives. SAR for dual serotonin & noradrenaline reuptake inhibition” (Bioorg Med Chem Lett, 2008).

Sequences of proteins named here, by UniProt entry; tags and fusion partners are left off.
UniProt P23975, whole entry: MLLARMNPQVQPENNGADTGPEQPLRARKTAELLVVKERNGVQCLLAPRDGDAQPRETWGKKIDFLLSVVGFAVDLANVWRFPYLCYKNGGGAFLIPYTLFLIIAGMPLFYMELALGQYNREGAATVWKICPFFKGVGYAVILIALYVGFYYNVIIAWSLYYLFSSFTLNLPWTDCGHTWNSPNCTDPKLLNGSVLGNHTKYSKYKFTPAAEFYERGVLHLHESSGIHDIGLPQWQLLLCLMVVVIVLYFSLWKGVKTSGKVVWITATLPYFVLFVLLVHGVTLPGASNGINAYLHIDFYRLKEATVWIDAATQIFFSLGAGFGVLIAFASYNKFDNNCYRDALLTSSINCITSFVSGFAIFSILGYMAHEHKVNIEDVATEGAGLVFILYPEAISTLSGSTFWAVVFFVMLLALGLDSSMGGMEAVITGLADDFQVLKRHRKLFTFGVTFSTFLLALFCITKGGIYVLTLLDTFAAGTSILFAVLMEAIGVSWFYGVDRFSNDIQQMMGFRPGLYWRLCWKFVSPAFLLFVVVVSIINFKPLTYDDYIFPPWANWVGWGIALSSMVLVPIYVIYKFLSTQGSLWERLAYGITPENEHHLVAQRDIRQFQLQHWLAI

Biological target: Sodium-dependent noradrenaline transporter (Homo sapiens, UniProt P23975)
Experiment: biochemical

Compound | pKi
COc1cc(Cl)ccc1O[C@@H](c1ccccc1)[C@@H]1CNCCO1 | 8.10
COc1cc(Cl)ccc1OC(c1ccccc1)C1CNCCO1 (racemic; syn) | 7.44
COc1cc(Cl)ccc1O[C@H](c1ccccc1)[C@H]1CNCCO1 | 6.38
COc1cc(Cl)ccc1OC(c1ccccc1)C1CNCCO1 (racemic; anti) | 6.49

pKi: −log10 of the molar value.
